Results published in patent US20240180881A1, “METHODS FOR DECREASING RESISTANCE TO CHEMOTHERAPY” (National Institute of Immunology, priority 2022, published 2024).

Test system: MDR genes (MRP2, MRP3, MRP5, MXR) in HCT116 IC60 CPTR cells
Details: 100 nM compound alone, 72 hours

## CN1CCN(C2=Nc3ccccc3Oc3ccc(Cl)cc32)CC1.O=C(O)CCC(=O)O [C17, Loxapine succinate]
  transcript levels of MDR genes: do not alter the transcript levels of MDR genes
